# Binding of CDR-mutated scFvs to a peptide of the spike HR2 region

Values reported by Li et al. 2023, doi:10.1038/s41467-023-39022-2 (FLAb copy).

Target: peptide PDVDLGDISGINAS, taken from heptad repeat 2 (HR2) of SARS-CoV-2 spike.

Each scFv is VH, three GGGGS repeats, VL, as in the parent Ab-14, and differs from it in the CDRs of the heavy chain only.
VH: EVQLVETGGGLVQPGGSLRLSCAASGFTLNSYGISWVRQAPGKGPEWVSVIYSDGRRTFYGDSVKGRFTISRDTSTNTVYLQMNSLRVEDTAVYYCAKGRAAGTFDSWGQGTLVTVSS
VL: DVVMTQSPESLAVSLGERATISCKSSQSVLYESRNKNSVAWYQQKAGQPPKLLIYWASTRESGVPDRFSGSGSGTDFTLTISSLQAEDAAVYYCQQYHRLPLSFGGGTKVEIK

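The starting antibody came from a phage panning campaign against this peptide. This is the validation round: designs drawn from the data on random variants, tested in the same kind of assay. Group labels follow the data file (Rand: our label for a block that the file lists under HC and that is probably the random mutants of the ten best first-round binders; En: ensemble of fine-tuned language models; HC: hill climbing; Gen: genetic algorithm; Gibbs: Gibbs sampling; a sequence that several methods proposed may carry one label only). The assay is AlphaSeq: two haploid yeast populations carry antibody and antigen on their surface. Binding brings cells together so that they mate, and sequencing counts the barcode pairs among the diploids. Scores were corrected for input abundance and mapped to Kd with protein pairs of known affinity run in the same pool. Mating was done six times.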

Variants are written as CDR1, CDR2 and CDR3 of the heavy chain (limits as in the source). Parent: GFTLNSYGIS, VIYSDGRRTFYGDSVK, GRAAGTFDS. Variants here have more than six changes. Each Kd is an estimate from the mating assay, the geometric mean of the replicates in which the pair was seen; lower is stronger. Where no diploid with the target was found in any replicate, the entry reads "nd": below detection, most likely a poor binder, though not proof of it. In the paper, a design with two or fewer of six values counts as a poor binder. Background: pairings of all heavy chain designs with three empty control strains gave a value in 1% of cases (median 120 nM, 5th percentile 7.0 nM). Values in that range, when seen in few replicates, are hard to tell from nonspecific mating. The parent sequence was in this pool as ten entries: three were never detected, three once, and four in most replicates, with averages from 2.2 nM to 240 nM. Values of this round are not directly comparable with the first-round values of the same sequences.

GFDLNEYGIS, VIYADGRRTAYSDSVK, GAVAGTFDK [En_HC]: 1.5 nM (6 of 6 replicates).
GFDLNEYGIS, VIYADGRRTFYIDSVK, GEEAGTFDM [En_HC]: 410 pM (6 of 6 replicates).
GFDINEYGIS, VIYADGMRTAYADSVK, GEAAGTFDV [En_HC]: 510 pM (6 of 6 replicates).
GFDLNEYGIS, VIYADGMRTAYSDSVK, GTNAGTFDT [En_Gen]: 13 nM (6 of 6 replicates).
GFDLQEYGIS, VIYADGQRTKVAENVK, GNVTFTGLV [En_Gibbs]: nd (0 of 6 replicates).
GFDLGEYGIS, VIYADGRRKGYSDAVK, GINVINKTV [En_Gibbs]: nd (0 of 6 replicates).
GFDLEDYGIS, VIYADGMRTAYSDSVK, GENAGTFDI [En_Gen]: 1.4 nM (6 of 6 replicates).
GFDLNEYGIS, VIYADGSRTAYSDSVK, GETAGTFDV [En_Gen]: 650 pM (6 of 6 replicates).
GFDLNEYGIS, VIYADGRRTQYADSVK, GNEAGTFDS [En_HC]: 3.6 nM (6 of 6 replicates).
GFDLNEYGIS, VIYADGVRTAYVDSVK, GNTAGTFDV [En_Gen]: 340 pM (6 of 6 replicates).
GKDLEEYGIS, VIYADGFRTAYKNQVK, GSGMIDTMV [En_Gibbs]: nd (0 of 6 replicates).
GFNLDEYGIS, VIYADGQRTQYANDVK, GGYNGSMLS [En_Gibbs]: nd (0 of 6 replicates).
GFSLNEYGIS, VIYADGIRQHYSDKVK, GVVFGNVMF [En_Gibbs]: nd (0 of 6 replicates).
GFDLNEYGIS, VIYADGMRTFYTDSVK, GEVAGTFDV [En_Gen]: 630 pM (6 of 6 replicates).
GFDLNEYGIS, VIYADGRRTFYADSVK, GNVAGTFNN [En_HC]: 280 pM (6 of 6 replicates).
GFDIEEYGIS, VIYADGQRTMYTPNVK, GNITGLVDI [En_Gibbs]: nd (0 of 6 replicates).
GFDLNEYGIS, VIYADGRRTFYTDSVK, GNVAGTFLV [En_HC]: 510 pM (6 of 6 replicates).
GFDLDEYGIS, VIYADGVRTAYSDSVK, GNVAGTFDQ [En_Gen]: 810 pM (6 of 6 replicates).
GFDLNEYGIS, VIYADGRRTFYADSVK, GSVAGTFDM [En_HC]: 220 pM (6 of 6 replicates).
GFDLSEYGIS, VIYADGKRTFYTDSVK, GEVAGTFDV [En_HC]: 480 pM (6 of 6 replicates).
GFDLDEYGIS, VIYADGRRTFYSDSVK, GETAGTFDV [En_HC]: 340 pM (6 of 6 replicates).
GFALTEYGIS, VIYADGRRTAYSQSVK, GLNGGIIDV [En_Gibbs]: nd (0 of 6 replicates).
GFDLNEYGIS, VIYADGRRTFYADSVK, GENGGTFDS [En_HC]: 2.3 nM (6 of 6 replicates).
GKSLEEYGIS, VIYADGQRSAYAETVK, GNNGGVFIY [En_Gibbs]: nd (0 of 6 replicates).
GKNLDEYGIS, VIYADGQRTAYSKNVK, GTFDVKRVD [En_Gibbs]: 10 nM (6 of 6 replicates).
GFDLNEYGIS, VIYADGMRTAYTDSVK, GGNAGTFDI [En_Gen]: 270 pM (6 of 6 replicates).
GFDLNEYGIS, VIYADGRRTFYSDSVK, GNVAGTFDM [En_HC]: 240 pM (6 of 6 replicates).
GFDLNEYGIS, VIYADGVRTFYADSVK, GNQAGTFDI [En_Gen]: 320 pM (6 of 6 replicates).
GFNLEEYGIS, VIYADGMRSEYADNVK, GHKGNTFID [En_Gibbs]: nd (0 of 6 replicates).
GFNINEYGIS, VIYADGQRLSYDDKVK, GDITGTFNL [En_Gibbs]: nd (0 of 6 replicates).
GFDLNEYGIS, VIYADGVRTFYTDSVK, GGNAGTFDV [En_HC]: 2.3 nM (6 of 6 replicates).
GFNLNEYGIS, VIYADGRRTFYADSVK, GQNAGTFDM [En_HC]: 320 pM (6 of 6 replicates).
GFDLNEYGIS, VIYADGVRKSYADSVK, GNNAGTFDV [En_Gen]: 400 pM (6 of 6 replicates).
GFPLDEYGIS, VIYADGIRTHYSNSVK, GTIGGTFFQ [En_Gibbs]: 120 nM (5 of 6 replicates).
GFTLDSGGIA, VTYSDGWRTFYGDSVK, GRGAGTALS [Rand]: nd (0 of 6 replicates).
GFDLDEYGIS, VIYADGMRTAYADSVK, GDNAGTFDV [En_Gen]: 280 pM (6 of 6 replicates).
GFDLDEYGIS, VIYADGVRTAYADKVK, GNVAGTFDV [En_Gen]: 250 pM (6 of 6 replicates).
GFNLNEYGIS, VIYADGMRTFYIDKAK, GNAGIVFEV [En_Gibbs]: 1.3 nM (6 of 6 replicates).
GFDINEYGIS, VIYADGMRTAYRDSVK, GEGKWIVLI [En_Gibbs]: 51 nM (3 of 6 replicates).
GFNLNEYGIS, VIYADGRRTFYSDSVK, GTVGGTFDV [En_HC]: 470 pM (6 of 6 replicates).
GFDLDEYGIS, VIYADGMRTFYADSVK, GEVAGTFDQ [En_Gen]: 610 pM (6 of 6 replicates).
GFDLNEYGIS, VIYADGMRKAYADSVK, GNQAGTFDL [En_Gen]: 270 pM (6 of 6 replicates).
GFDLNEYGIS, VIYADGFRTFYTDSVK, GEVAGTFDE [En_HC]: 440 pM (6 of 6 replicates).
GFDLNEYGIS, VIYADGRRTAYADDVK, GNVAGTFDV [En_Gen]: 520 pM (6 of 6 replicates).
GFDLNEYGIS, VIYADGRRTFYSDSVK, GEAAGFFDI [En_HC]: nd (0 of 6 replicates).

Again, the first 7 entries without any signal:

GFDLQEYGIS, VIYADGQRTKVAENVK, GNVTFTGLV [En_Gibbs]: nd (0 of 6 replicates).
GFDLGEYGIS, VIYADGRRKGYSDAVK, GINVINKTV [En_Gibbs]: nd (0 of 6 replicates).
GKDLEEYGIS, VIYADGFRTAYKNQVK, GSGMIDTMV [En_Gibbs]: nd (0 of 6 replicates).
GFNLDEYGIS, VIYADGQRTQYANDVK, GGYNGSMLS [En_Gibbs]: nd (0 of 6 replicates).
GFSLNEYGIS, VIYADGIRQHYSDKVK, GVVFGNVMF [En_Gibbs]: nd (0 of 6 replicates).
GFDIEEYGIS, VIYADGQRTMYTPNVK, GNITGLVDI [En_Gibbs]: nd (0 of 6 replicates).
GFALTEYGIS, VIYADGRRTAYSQSVK, GLNGGIIDV [En_Gibbs]: nd (0 of 6 replicates).